Experimental data as given in patent publication US11839614B2, “Methods for treating or mitigating cardiotoxicity characterized by inhibition of adenosine A2 signaling and/or adenosine A2 receptor expression” (INTRA-CELLULAR THERAPIES, INC., priority 2018, dated 2023).

Sequences of proteins named here, by UniProt entry; tags and fusion partners are left off. A change or cut given only in a name is not applied to a line headed by its entry.
UniProt Q08499, whole entry, species assumed: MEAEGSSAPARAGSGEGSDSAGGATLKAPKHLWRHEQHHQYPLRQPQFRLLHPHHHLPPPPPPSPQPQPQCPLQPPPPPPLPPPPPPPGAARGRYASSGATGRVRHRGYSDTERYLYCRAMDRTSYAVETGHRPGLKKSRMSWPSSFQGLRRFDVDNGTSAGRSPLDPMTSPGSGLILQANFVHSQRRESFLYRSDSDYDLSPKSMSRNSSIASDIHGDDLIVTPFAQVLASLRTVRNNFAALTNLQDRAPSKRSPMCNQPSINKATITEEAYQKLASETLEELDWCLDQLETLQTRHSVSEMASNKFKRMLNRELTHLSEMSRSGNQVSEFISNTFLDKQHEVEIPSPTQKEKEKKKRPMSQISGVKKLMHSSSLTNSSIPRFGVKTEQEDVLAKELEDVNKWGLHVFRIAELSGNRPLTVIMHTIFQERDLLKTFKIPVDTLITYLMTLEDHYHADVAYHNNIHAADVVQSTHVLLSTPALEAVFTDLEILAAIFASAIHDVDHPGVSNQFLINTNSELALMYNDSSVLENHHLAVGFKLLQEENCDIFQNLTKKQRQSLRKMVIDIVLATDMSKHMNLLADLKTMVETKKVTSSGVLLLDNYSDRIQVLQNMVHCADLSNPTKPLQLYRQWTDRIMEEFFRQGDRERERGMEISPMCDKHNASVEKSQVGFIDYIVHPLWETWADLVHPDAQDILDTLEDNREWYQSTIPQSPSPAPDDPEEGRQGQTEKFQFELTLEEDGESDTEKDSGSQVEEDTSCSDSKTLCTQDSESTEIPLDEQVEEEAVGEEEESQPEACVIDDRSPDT
UniProt Q01064: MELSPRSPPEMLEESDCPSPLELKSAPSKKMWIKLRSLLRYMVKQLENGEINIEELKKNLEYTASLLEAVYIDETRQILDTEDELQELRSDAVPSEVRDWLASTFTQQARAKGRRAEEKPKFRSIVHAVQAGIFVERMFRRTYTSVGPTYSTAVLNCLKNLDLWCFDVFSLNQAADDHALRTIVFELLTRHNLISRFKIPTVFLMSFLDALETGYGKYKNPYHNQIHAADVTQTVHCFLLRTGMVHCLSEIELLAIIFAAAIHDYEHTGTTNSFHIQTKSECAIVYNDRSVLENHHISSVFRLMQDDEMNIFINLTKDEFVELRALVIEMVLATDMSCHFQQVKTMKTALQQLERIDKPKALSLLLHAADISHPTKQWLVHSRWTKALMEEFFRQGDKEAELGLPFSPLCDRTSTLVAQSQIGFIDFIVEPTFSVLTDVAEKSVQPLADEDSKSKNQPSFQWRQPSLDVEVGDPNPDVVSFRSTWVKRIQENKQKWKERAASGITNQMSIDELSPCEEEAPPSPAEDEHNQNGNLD

Experiments:
[1] = biological target: PDE4D (Homo sapiens, UniProt Q08499); experiment: biochemical
From the text: (§1) Additional pharmaceuticals used in the following examples are dobutamine (Hospira Inc., Lake Forest, Ill.), esmolol HCl (Mylan, Rockford, Ill.), MRS1754 (Tocris Bioscience, Bristol, UK), and Hespan (6% Hetastarch in 0.9% NaCl B. Braun Medical Inc., Bethlehem, Pa.).

[2] = biological target: r-hPDE1B (Homo sapiens, UniProt Q01064); experiment: biochemical
From the text: as §1

[3] = test system: all other PDE enzyme families
From the text: as §1

[4] = test system: normal and failing canine hearts; experiment: Conscious dog pressure-volume hemodynamic analysis, normal and failing hearts; assay type: in vivo; conditions: normal dogs, 10 mg/kg oral
Experimental: Dogs are studied in the conscious state before and after inducing dilated cardiomyopathy by tachypacing for two weeks at 200 bpm. These dogs are studied on separate days to determine the effects of oral and intravenous Compound 1, and its interaction with 1-adrenergic stimulation.
Oral drug administration: Compound 1 (0.1-10 mg/kg) is administered in gelatin capsules in peanut butter, and hemodynamic data recorded over the ensuing hour. In a subset of animals, dogs are first subjected to dobutamine infusion for 15 minutes (10 g/kg/min), a new baseline was established, and then oral dosages of Compound 1 are administered, with dobutamine subsequently added as a combination treatment 90 min after administration of Compound 1.
Intravenous drug administration: Compound 1 is dissolved in 0.05 M citrate-phosphate buffer, and administered as a bolus over the course of 1-2 minutes via a central venous catheter. […]
To assess the effect of acute PDE1 inhibition, studies were conducted of the pressure-volume relationships in intact dogs with either healthy or failing hearts, and analyzed hemodynamic and cardiac mechanics at baseline and two hours after oral administration of Compound 1 (10 mg/kg). […] Load insensitive indexes of contractility (dP/dtmax/IP and PRSW) increased. […]

[5] = test system: rabbit heart and vasculature; experiment: Anesthetized rabbit pressure-volume hemodynamics with or without esmolol or MRS-1754; assay type: in vivo; conditions: 0.1 mg/kg i.v. bolus alone
Experimental: Cyclic AMP is generated largely by transmembrane adenylyl cyclases activated via stimulatory G protein (Gs), with β-adrenergic, adenosine (primarily A2B), glucagon, prostanoids, histamine, and serotonin all coupling to Gs in cardiomyocytes. The present studies focus on beta-adrenergic and adenosine receptors, and for the latter, concentrated on the A2B receptor, which has been reported to directly stimulate cAMP-dependent contractility. Anesthetized rabbits are administered a bolus intravenous Compound 1 at 0.1 mg/kg (dose based on dog results) with or without prior treatment with the selective β1-blocker esmolol or the adenosine A2BR blocker MRS-1754. […] Relaxation changes are also modest with LV preload (end-diastolic and volume) unaltered; however, the combined vasodilator-inotropic response doubled ventricular/arterial coupling ratio, Ees/Ea.
New Zealand White rabbits (male, 2-3 kg) are sedated with 35 mg/kg ketamine and 5 mg/kg xylazine, intubated and ventilated (Model 683, Harvard Apparatus, Holliston, Mass.), with anesthesia maintained with isoflurane inhalation (1-2%). […] The parallel conductance is determined by the hypertonic saline injection method. […]

[6] = test system: adult rabbit myocytes; experiment: Contraction and calcium transients in isolated rabbit cardiomyocytes; assay type: cell-based; conditions: FSK+Compound 1 versus FSK+IBMX
Experimental: To test whether PDE1 inhibition directly impacts cardiomyocyte contraction and calcium transients, studies are carried out on normal adult rabbit myocytes. […] By contrast, Compound 1 has no effect even at 1 mM. […] As PDE1 requires sufficient cAMP and Ca^2+ to be impactful, a dose response was performed to the adenylate cyclase activator, forskolin (FSK) to determine the lowest dose producing a modest but significant inotropic effect (1 μM).
Time-controls tests are performed comparing Compound 1+FSK with FSK incubation for the identical duration. […] Comparing FSK alone, FSK+Compound 1, and FSK+IBMX, the relative rise in sarcomere shortening percentage with selective PDE1 inhibition is 31% of the rise with IBMX. For calcium relaxation, however, Compound 1 shortens the time constant by 67% of the maximal achieved with IBMX.
Rabbit myocytes were isolated to determine the effect of PDE1 inhibition on cardiomyocyte contraction and whole cell Ca2+ transients, and to compare the results to those with a PDE3 inhibitor, cilostamide (Cil, 1 μM).
To compare the influence of PDE1 and PDE3 in modulating β-AR signaling, cells were first exposed to a non-saturating dose of isoproterenol (Iso), then Iso combined with either Cil or Compound 1.
An alternative approach to augmenting cAMP independent of […] is to directly stimulate adenylate cyclase using forskolin (Fsk). […]

[7] = test system: myocyte cAMP; experiment: Whole cell cAMP in isolated rabbit myocytes; assay type: cell-based; conditions: Compound 1 added to Fsk
Experimental: Lastly, the effect of Iso, Cil, Compound 1, and their combination on myocyte cAMP was tested. […] This is consistent with prior studies showing locally generated cAMP from β-AR and its modulation by PDE3 occur in local subcellular domains that are not easily detected in whole cell lysates32.

## CN1C(=O)c2c(nn(Cc3ccc(-c4cccc(F)n4)cc3)c2Nc2ccccc2)N2C1=N[C@@H]1CCC[C@@H]12 [Compound 1, (6aR,9aS)-2-(4-(6-fluoropyridin-2-yl)benzyl)-5-methyl-3-(phenyl-amino)-5,6a,7,8,9,9a-hexahydrocyclopenta-[4,5]imidazo[1,2-a]pyrazolo[4,3-e]pyrimidin-4-(2H)-one monophosphate]
[1]
  Ki: 0.033 µM
[2]
  Ki: 0.00038 µM
[3]
  selectivity compared with all other PDE enzyme families: 10^4-3×10^5 fold
[4]
  load insensitive indexes of contractility (dP/dtmax/IP and PRSW): increased
[5]
  ventricular/arterial coupling ratio, Ees/Ea: doubled
[6]
  relative rise in sarcomere shortening percentage, as share of the rise with IBMX: 31%
[7]
  cAMP change relative to the maximal change with IBMX added to Fsk: about half the maximal change
